By UniProt entry, the sequences of proteins in these tests, tags left out.
UniProt P28223, whole entry: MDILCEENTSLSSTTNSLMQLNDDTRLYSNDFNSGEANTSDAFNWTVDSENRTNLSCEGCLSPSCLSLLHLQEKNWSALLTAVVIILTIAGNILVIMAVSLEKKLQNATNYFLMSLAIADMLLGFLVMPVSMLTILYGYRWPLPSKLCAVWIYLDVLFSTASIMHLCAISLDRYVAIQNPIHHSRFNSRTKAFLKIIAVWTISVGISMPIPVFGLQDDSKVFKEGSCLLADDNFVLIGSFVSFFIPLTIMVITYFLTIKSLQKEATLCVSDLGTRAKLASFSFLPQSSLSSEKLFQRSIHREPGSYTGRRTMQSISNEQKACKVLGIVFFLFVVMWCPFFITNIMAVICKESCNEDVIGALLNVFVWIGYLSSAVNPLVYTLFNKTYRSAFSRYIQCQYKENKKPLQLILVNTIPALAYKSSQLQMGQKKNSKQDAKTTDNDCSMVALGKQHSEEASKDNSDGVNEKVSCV

In patent EP4847510A1, “TETRACYCLIC COMPOUND, AND PREPARATION METHOD, PHARMACEUTICAL COMPOSITION, AND USE THEREOF” (dated 2026):

Columns and labels:
5HT2A receptor [1] = molecular target: T1, 5HT2A receptor (Homo sapiens, UniProt P28223); test: Downstream calcium flux functional activity assay, method 2 (HEK293 cells transiently transfected); conditions: for Ca^2+ flux Assay Emax%: method 2, highest concentration of 5-HT = 100%; for EC50: read-out: Ca^2+ flux Assay EC50, method 2, transiently transfected HEK293 cells
5HT2A receptor [2] = molecular target: T1, 5HT2A receptor; test: Downstream beta-arrestin functional activity assay, method 2 (NanoBret); conditions: for β-arrestin Emax%: method 2, highest concentration of 5-HT = 100%; for EC50: read-out: β-arrestin EC50, method 2, HEK293 cells
5HT2A receptor [3] = molecular target: T1, 5HT2A receptor; test: Downstream calcium flux functional activity assay, method 1 (HEK293 cells stably expressing the receptor)

Row | SMILES | Ca^2+ flux Assay Emax% (5HT2A receptor [1]) [%] | EC50 (5HT2A receptor [1]) [µM] | β-arrestin Emax% (5HT2A receptor [2]) [%] | EC50 (5HT2A receptor [2]) [µM] | Ca^2+ flux Assay Emax% (5HT2A receptor [3]; method 1, highest concentration of 5-HT = 100%) [%] | EC50 (5HT2A receptor [3]; read-out: Ca^2+ flux Assay EC50, method 1, HEK293-5HT2AR cells) [µM]
1 | O=c1[nH]c2cccc3c2n1[C@H]1CCN(CCCc2cccc4c2OCC4)C[C@@H]31 | 0 | > 100 | 27.5 | 0.0347 |  | 
2 | CN1CCN2c3c(cccc31)[C@@H]1CN(CCCc3ccccc3Oc3ccncc3)CC[C@@H]12 |  |  |  |  | 1.35 | > 100
3 | CN1C(=O)CN2c3c(cccc31)[C@@H]1CN(CCOc3nccc4c3OCC4)CC[C@@H]12 | 38.41 | 0.159 | 36.3 | 0.469 |  | 
4 | O=S1(=O)CCN2c3c(cccc31)C1CN(CCCc3cccc4c3OCC4)CCC12 (centres unmarked) | 8.883 | > 100 |  |  |  | 
5 | CC(=O)N1CCN2c3c(cccc31)[C@@H]1CN(CC(O)Cc3cccc4c3OCC4)CC[C@@H]12 (some centres unmarked) | 1.638 | > 100 |  |  |  | 
6 | COc1cccnc1CCCN1CC[C@H]2[C@@H](C1)c1cccc3c1N2CC(=O)N3C |  |  | 54.3 | 0.753 |  | 
7 | CN1CCN2c3c(cccc31)[C@@H]1CN(CCc3cccc4ccoc34)CC[C@@H]12 | 12.74 | 0.156 | 50.4 | 0.0675 |  | 
8 | CC1(C)C(=O)Nc2cccc3c2N1[C@H]1CCN(CCCc2cccc4c2OCC4)C[C@@H]31 |  |  | 45.4 | 0.585 |  | 
9 | CN1C(=O)CN2c3c(cccc31)[C@@H]1CN(CCCc3scc4c3OCC4)CC[C@@H]12 | 34.01 | 0.061 | 68.1 | 0.0461 |  | 
10 | CC(=O)N1CCN2c3c(cccc31)[C@@H]1CN(CCCc3cccc4c3OCC4)CC[C@@H]12 | 10.22 | 46.3 |  |  |  | 
11 | CN1CCN2c3c(cccc31)[C@@H]1CN(Cc3cccc4c3OCC4)CC[C@@H]12 |  |  | 130.4 | 1.93 |  | 
12 | O=c1[nH]c2cccc3c2n(c1=O)[C@H]1CCN(CCCc2cccc4c2OCC4O)C[C@@H]31 (some centres unmarked) |  |  | 31.8 | 1.02 |  | 
13 | COc1cc2c3c(c1)N(C)CCN3C1CCN(CCCc3cccc4c3OCC4)CC21 (centres unmarked) | 5.425 | > 100 |  |  |  | 
14 | CN1CCN2c3c(cc(C#N)cc31)[C@@H]1CN(CCCc3cccc4c3OCC4)CC[C@@H]12 | 9.991 | > 100 |  |  |  | 
15 | CC(=O)N1CCN2c3c(cccc31)[C@@H]1CN(CC3CC3c3cccc4c3OCC4)CC[C@@H]12 (some centres unmarked) | 3.884 | > 100 |  |  |  | 
16 | O=C1Nc2cccc3c2N(C1O)[C@H]1CCN(CCCc2cccc4c2OCC4)C[C@@H]31 (some centres unmarked) |  |  | 28.2 | 0.453 |  | 
17 | CN1C(=O)CCN2c3c(cccc31)[C@@H]1CN(CCCc3cccc4c3OCC4)CC[C@@H]12 |  |  | 36.7 | 0.643 |  | 
18 | CN1C(=O)CN2c3c(cccc31)[C@@H]1CN(CCCc3c(F)ccc4c3OCC4)CC[C@@H]12 | 34.79 | 1.18 | 83.6 | 0.0573 |  | 
19 | CCN1CCN2c3c(cccc31)[C@H]1CN(CCCc3cccc4c3OCC4)CC[C@H]12 |  |  | 44.3 | 0.0016 |  | 
20 | CN1C(=O)CN2c3c(cccc31)[C@@H]1CN(CCCc3ncccc3Cl)CC[C@@H]12 |  |  | 80.4 | 1.02 |  | 
21 | [2H]C([2H])([2H])N1C(=O)CN2c3c(cccc31)[C@@H]1CN(CCCc3nccc4c3OCC4)CC[C@@H]12 |  |  | 81.2 | 0.655 |  | 
22 | O=C1CN2c3c(cccc3[C@@H]3CN(CCc4cccc5ccoc45)CC[C@@H]32)N1 |  |  | 51.7 | 3.94 |  | 
23 | CN1C(=O)CN2c3c(cccc31)[C@@H]1CN(CCC(O)c3cccc4c3OCC4)CC[C@@H]12 (some centres unmarked) | 17.38 | 0.428 |  |  |  | 

Next, values leading:

Row | Ca^2+ flux Assay Emax% (5HT2A receptor [1]) [%] | EC50 (5HT2A receptor [1]) [µM] | β-arrestin Emax% (5HT2A receptor [2]) [%] | EC50 (5HT2A receptor [2]) [µM] | Ca^2+ flux Assay Emax% (5HT2A receptor [3]; method 1, highest concentration of 5-HT = 100%) [%] | EC50 (5HT2A receptor [3]; read-out: Ca^2+ flux Assay EC50, method 1, HEK293-5HT2AR cells) [µM] | SMILES
24 | 3.316 | > 100 |  |  |  |  | [2H]C1([2H])C(=O)Nc2cccc3c2N1[C@H]1CCN(CCCc2cccc4c2OCC4)C[C@@H]31
25 |  |  | 41.87 | 0.0605 |  |  | O=C1CN2c3c(cccc3[C@H]3CN(CCCc4cccc5c4OCC5)CC[C@H]32)N1
26 | 27.36 | 36 | 32.67 | 0.155 |  |  | O=C1CN2c3c(cccc3[C@@H]3CN(CCCc4cccc5c4OCC5)CC[C@H]32)N1 (relative stereo)
27 |  |  | 77.9 | 0.659 |  |  | O=C1CN2c3c(cccc3[C@@H]3CN(CCCc4cc(F)cc5c4OCC5)CC[C@@H]32)N1
28 | 3.69 | > 100 | 55.7 | 0.17 |  |  | O=C1CCN2c3c(cccc3[C@@H]3CN(CCCc4cccc5c4OCC5)CC[C@@H]32)N1
29 | 1.35 | > 100 | 18.5 | 0.0295 |  |  | c1cc(CCCN2CC[C@H]3[C@@H](C2)c2cccc4c2N3CCN4)c2c(c1)CCO2
30 | 2.23 | > 100 | 59.1 | 0.524 |  |  | O=C1CN2c3c(cccc3[C@@H]3CN(CCCc4ccc(F)c5c4OCC5)CC[C@@H]32)N1
31 | 14.8 | 0.994 | 12.8 | 0.0328 |  |  | CN1C(=O)CN2c3c(cccc31)[C@@H]1CN(CCOc3cccc4c3OCC4)CC[C@@H]12
32 | 26.72 | 1.11 | 43.44 | 0.171 |  |  | CC1(C)Cc2cccc(CCCN3CC[C@H]4[C@@H](C3)c3cccc5c3N4CC(=O)N5)c2O1
33 | 46.83 | > 100 | 34.4 | 0.0963 |  |  | O=C1CN2c3c(cccc3[C@@H]3CN(CCCc4c(Cl)ccc5c4OCC5)CC[C@@H]32)N1
34 | 38.55 | 0.0223 | 44.9 | 0.329 |  |  | O=C1CN2c3c(cccc3[C@@H]3CN(CCCc4ccc(O)c5c4OCC5)CC[C@@H]32)N1
35 |  |  | 61.8 | 3.37 |  |  | O=C1CN2c3c(cccc3[C@@H]3CN(CCCCc4cccc5c4OCC5)CC[C@@H]32)N1
36 | 12.89 | 0.659 |  |  |  |  | O=C1CN2c3c(cccc3[C@@H]3CN(CCOc4cccc5c4OCC5)CC[C@@H]32)N1
37 |  |  | 84.9 | 2.4 |  |  | O=C1CN2c3c(cccc3[C@@H]3CN(CCCc4cncc5c4OCC5)CC[C@@H]32)N1
38 |  |  | 11.8 | 0.784 |  |  | O=C1CN2c3c(cccc3[C@@H]3CN(CCc4cccc5c4OCC5)CC[C@@H]32)N1
39 |  |  | 100.2 | 0.914 |  |  | O=C1CN2c3c(cccc3[C@@H]3CN(CCNc4cccc5c4OCC5)CC[C@@H]32)N1
40 | 18.00 | 0.759 |  |  |  |  | O=C1CN2c3c(cc(F)cc3C3CN(CCCc4cccc5c4OCC5)CCC32)N1 (centres unmarked)
41 | 5.83 | > 100 | 37.9 | 0.336 |  |  | O=C1CN2c3c(cccc3[C@@H]3CN(CCCc4cc(O)cc5c4OCC5)CC[C@@H]32)N1
42 | 73.85 | 0.231 | 70.8 | 0.362 |  |  | CC(CCc1cccc2c1OCC2)N1CC[C@H]2[C@@H](C1)c1cccc3c1N2CC(=O)N3 (some centres unmarked)
43 |  |  | 79.7 | 3.14 |  |  | O=C1CN2c3c(cccc3[C@@H]3CN(Cc4cccc5c4OCC5)CC[C@@H]32)N1
